In PubChem BioAssay (NCI) one finds GI50 and TGI data, which are given here for 1 compound.

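Assay format: 96-well plates, 48-hour exposure. At the GI50, growth is halved. Definition used: TGI = concentration required for complete inhibition of growth.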

The subject of this experiment is MDA-MB-468 breast. Nature of the experiment: NCI anticancer screen, dose series, 48 h.

`O=[N+]([O-])c1cc([N+](=O)[O-])c(Nc2ccc(Cl)cc2)c([N+](=O)[O-])c1`: the GI50 was 1.39 µM and the TGI is 5.32 µM.
